In patent US10696692B2, “Amido-benzyl sulfone and sulfoxide derivates” (Forma TM, LLC, priority 2012, dated 2020) one finds IC50 data, which are given here for 2 compounds.

Amino acid sequences for entries named in this document (tags omitted). A change or cut given only in a name is not applied to a line headed by its entry.
UniProt P43490: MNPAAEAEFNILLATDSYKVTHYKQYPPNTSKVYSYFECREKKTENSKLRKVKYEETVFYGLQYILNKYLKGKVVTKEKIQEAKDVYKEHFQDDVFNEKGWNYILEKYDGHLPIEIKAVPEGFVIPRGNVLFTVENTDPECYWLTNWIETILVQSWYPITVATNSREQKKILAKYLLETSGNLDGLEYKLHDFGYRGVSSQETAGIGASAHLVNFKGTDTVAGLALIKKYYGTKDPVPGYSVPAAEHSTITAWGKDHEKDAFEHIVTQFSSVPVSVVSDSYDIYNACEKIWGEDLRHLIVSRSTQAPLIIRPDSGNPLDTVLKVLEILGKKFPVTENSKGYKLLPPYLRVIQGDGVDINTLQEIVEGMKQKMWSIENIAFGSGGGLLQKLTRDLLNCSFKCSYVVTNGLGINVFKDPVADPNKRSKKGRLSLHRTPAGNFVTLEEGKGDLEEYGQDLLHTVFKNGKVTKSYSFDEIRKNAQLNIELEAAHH

The test addresses NAMPT (Homo sapiens (Human), UniProt P43490). Briefly: Assay 1: Biochemical Inhibition Assay (NAMPT enzymatic reaction, NMN quantified by mass spectrometry).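 Further: recombinant His-tagged human NAMPT preincubated with compound 15 min, then reacted 30 min at rt with 1 µM NAM, 100 µM PRPP, 2.5 mM ATP, NMN product read by RapidFire MS, normalized to L-Cystathionine internal standard.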

On to `O=C(NCc1ccc(S(=O)(=O)N2CCC(N3CCCC3)CC2)cc1)c1cnc2[nH]ncc2c1` [Example 156, 1 H-Pyrazolo[3,4-b]pyridine-5-carboxylic acid 4-(4-pyrrolidin-1-yl-piperidine-1-sulfonyl)-benzylamide], for which 94.1 nM corresponded to half-maximal inhibition (IC50).

With `O=C(NCc1ccc(S(=O)(=O)N2CC3(CCNCC3)C2)cc1)c1ccc2nccn2c1` [Example 261, N-[[4-(2,7-diazaspiro[3.5]nonan-2-ylsulfonyl)phenyl]methyl] imidazo[1,2-a]pyridine-6-carboxamide], the IC50 (in general, the concentration that gives 50% inhibition) was 14.2 nM.
